In patent US20240131499A1, “BIOMIMETIC CATALYSTS FOR DIVERSE INDUSTRIAL APPLICATIONS IN CHEMICAL REACTIONS” (Wisconsin Alumni Research Foundation, priority 2022, published 2024):

Assay: Reaction kinetics analysis for lactose hydrolysis
Details: 100° C.; homogeneous (non-immobilized) catalyst; amino acids 82-84 mM; 95% confidential intervals
Experimental: The glass vial was capped to prevent the solvent from evaporation, and the hydrolysis reaction was carried out at 100° C. in an oil bath (120 and 90° C. were used to measure activation energies) with 600-800 rpm stirring. […] 0.105 g (=0.1 mL) of liquid sample solution was collected at each day (every 18-26 h) for 5 days and diluted in 0.399 g (=0.4 mL) of MQ water for the reaction kinetics analysis, and the diluted sample was filtered by syringe filter (20 μm pore) and analyzed by HPLC.
The chemical concentrations of hydrolyzed lactose solutions were quantified by high performance liquid chromatography (HPLC) analysis. The hydrolyzed solutions with immobilized catalysts were centrifuged (2500 rpm, 20 min) to separate the immobilized catalyst in the aqueous phase solution. 0.105 g (0.1 mL) of the aqueous solution was diluted in 0.399 g (0.4 mL) of Milli-Q water (5 times dilution by volume) to analyze the concentrations of lactose, glucose, galactose, and HMF as one of by-products by glucose degradation. […] The temperature of the HPLC column was maintained at 50° C., and the flow rate of the mobile phase (pH 2 water, acidified by sulfuric acid) was 0.6 mL/min.

Structure (SMILES): CC(=O)O [acetic acid]
- kd,app, apparent rate constant for glucose degradation: 8.3e-08 ± 4.17e-07 s⁻¹
